Chains of the proteins cited; added tags and fusions are not shown.
UniProt Q01827, whole entry: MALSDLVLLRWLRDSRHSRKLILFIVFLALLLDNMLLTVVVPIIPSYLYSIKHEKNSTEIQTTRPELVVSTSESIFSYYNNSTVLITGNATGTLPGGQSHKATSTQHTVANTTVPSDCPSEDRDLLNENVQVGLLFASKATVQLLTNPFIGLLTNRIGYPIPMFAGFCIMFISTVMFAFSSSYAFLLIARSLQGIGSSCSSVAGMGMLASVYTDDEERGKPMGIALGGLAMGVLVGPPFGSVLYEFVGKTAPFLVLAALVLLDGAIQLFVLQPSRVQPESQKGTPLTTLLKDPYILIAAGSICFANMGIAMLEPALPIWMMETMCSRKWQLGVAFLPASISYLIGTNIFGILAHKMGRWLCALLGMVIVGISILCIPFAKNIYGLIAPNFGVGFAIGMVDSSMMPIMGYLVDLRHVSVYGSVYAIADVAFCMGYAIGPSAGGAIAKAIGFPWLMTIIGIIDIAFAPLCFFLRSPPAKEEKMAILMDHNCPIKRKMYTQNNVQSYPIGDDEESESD

In patent publication US10993941B2, “Methods for the administration of certain VMAT2 inhibitors” (Neurocrine Biosciences, Inc., priority 2017, dated 2021):

Biological target: T1, VMAT2 (Rattus norvegicus, UniProt Q01827)
T1 construct: from tissue; host or cells: rat forebrain membranes
Assay type: binding
Details: rat forebrain

## COc1cc2c(cc1OC)[C@@H]1C[C@@H](O)[C@@H](CC(C)C)CN1CC2 [R,S,S-DHTBZ]
  affinity weaker than R,R,R-DHTBZ: ~160 times

## COc1cc2c(cc1OC)[C@@H]1C[C@H](O)[C@@H](CC(C)C)CN1CC2 [S,S,S-DHTBZ]
  affinity weaker than R,R,R-DHTBZ: approximately 60 times
